Earlier results as cited in patent US20090306944A1, “DEVICE AND METHOD FOR CALCULATING AND SUPPLYING A DRUG DOSE” (BAYER TECHNOLOGY SERVICES GMBH, priority 2006, published 2009).

Conditions: proportion of overall clearance, reference value in an adult

Gentamicin
Excretion process: Renal: Renal (100%)
